Source: patent publication US20100009907A1, “Glucagon-Like Peptides and Uses Thereof” (AMYLIN PHARMACEUTICALS, INC., priority 2006, published 2010)

Assays:
[1] = biological target: T1, RINm5f cells expressing endogenous GLP-1, calcitonin, and GIP receptors (Rattus norvegicus, UniProt P32301); experiment: GLP/GIP/CT cAMP (RIN) assay; format: cell-based
T1 construct: RINm5f cells expressing endogenous GLP-1, calcitonin, and GIP receptors; endogenous in cells; host or cells: RINm5f cells
T1 sequence (P32301 22-463): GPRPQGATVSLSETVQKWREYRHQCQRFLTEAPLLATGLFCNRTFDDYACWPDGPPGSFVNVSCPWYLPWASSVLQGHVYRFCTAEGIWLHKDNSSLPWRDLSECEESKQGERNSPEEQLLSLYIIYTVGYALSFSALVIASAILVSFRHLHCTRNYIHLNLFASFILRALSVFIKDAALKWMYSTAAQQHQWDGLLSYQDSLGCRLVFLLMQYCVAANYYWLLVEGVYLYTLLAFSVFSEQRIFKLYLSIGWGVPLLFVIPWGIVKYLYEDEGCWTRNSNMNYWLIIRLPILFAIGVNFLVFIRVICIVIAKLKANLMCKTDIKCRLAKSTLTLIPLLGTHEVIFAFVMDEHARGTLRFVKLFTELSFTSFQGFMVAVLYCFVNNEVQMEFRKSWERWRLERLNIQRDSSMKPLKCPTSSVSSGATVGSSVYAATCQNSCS
Description: In addition, receptor binding can be measured using cells prepared from confluent cultures of RINm5f cells expressing endogenous GLP-1, calcitonin, and GIP receptors. Cells, and peptide or buffer solution are combined in 384-well plates. After a 30-minute incubation at room temperature in air, cAMP content is measured as recommended in the Perkin-Elmer AlphaScreen kit instructions.
(§1) Cells, and peptide or buffer solutions are combined in 384-well plates and incubated at room temperature in air for 30-minutes. cAMP content can then be measured according to recommendations in the Perkin-Elmer AlphaScreen™ kit instructions using the Perkin Elmer Fusion fluorimeter and data are analyzed using XLfit software (IDBS).

[2] = biological target: T2, rat thyroid carcinoma 6-23 clone 6 cells expressing endogenous GLP-1 receptors (Rattus norvegicus, UniProt P32301); experiment: GLP-1 cAMP (6-23) cyclase assay; format: cell-based
T2 construct: rat thyroid carcinoma 6-23 clone 6 cells or RINm5F insulinoma cells expressing endogenous GLP-1 receptors; endogenous in cells; host or cells: rat thyroid carcinoma 6-23 clone 6 cells
T2 sequence (P32301 22-463): T1 sequence (P32301 22-463)
Description: as §1

[3] = Acute food intake assay (FI Assay); format: in vivo, NIH/Swiss mice; details: 1000 μg/kg intraperitoneal, relative to vehicle
Description: The effect of various test peptides on food intake is investigated using an acute food intake assay. This assay measures food consumption in lean, group-housed, overnight-fasted NIH/Swiss mice. Twelve mice are housed three to a cage. […] Decreased, as well as increased, food intake is measured. Testing of the various doses of the polypeptide generates ED50s.
Female NIH/Swiss mice (8-24 weeks old) are group housed with a 12:12 hour light:dark cycle with lights on at 0600. Water and a standard pelleted mouse chow diet are available ad libitum, except as noted. Animals are fasted starting at approximately 1500 hrs, 1 day prior to experiment. The morning of the experiment, animals are divided into experimental groups.
At time=0 min, all animals are given an intraperitoneal injection of vehicle or compound in an amount ranging from about 63 to 1000 μg/kg, and immediately given a pre-weighed amount (10-15 g) of the standard chow.

SMILES | GLP/GIP/CT cAMP(RIN) EC50 [1] [nM] | EC50 [2] [nM] | Food Intake % inhibition 30 min ([3]; 30 min) [%] | Food Intake % inhibition 60 min ([3]; 60 min) [%] | Food Intake % inhibition 120 min ([3]; 120 min) [%] | Food Intake % inhibition 180 min ([3]; 180 min) [%]
CC[C@H](C)[C@H](NC(=O)[C@H](CC(C)C)NC(=O)[C@H](Cc1c[nH]c2ccccc12)NC(=O)[C@H](CCC(=O)O)NC(=O)[C@@H](NC(=O)[C@H](Cc1ccccc1)NC(=O)[C@H](CCC(=O)O)NC(=O)[C@H](CCCCN)NC(=O)[C@H](C)NC(=O)[C@H](C)NC(=O)[C@H](CCCCN)NC(=O)[C@H](CCC(=O)O)NC(=O)[C@H](CCC(=O)O)NC(=O)[C@H](CC(C)C)NC(=O)[C@H](Cc1ccc(O)cc1)NC(=O)[C@H](CCC(=O)O)NC(=O)[C@@H](NC(=O)[C@@H](NC(=O)[C@H](CC(=O)O)NC(=O)[C@H](CC(N)=O)NC(=O)[C@@H](NC(=O)[C@H](Cc1ccc(O)cc1)NC(=O)[C@@H](NC(=O)CNC(=O)[C@H](CCC(=O)O)NC(=O)[C@@H](C)NC(=O)[C@@H](N)Cc1c[nH]cn1)[C@@H](C)O)[C@@H](C)O)C(C)C)[C@@H](C)O)[C@@H](C)CC)C(=O)N[C@@H](CCCCN)C(=O)NCC(=O)N[C@@H](CCCCN)C(=O)N1CCC[C@H]1C(=O)N[C@@H](CCCCN)C(=O)N[C@@H](CCCCN)C(=O)N[C@H](C(=O)N[C@@H](CCCNC(=N)N)C(=O)N[C@@H](Cc1ccc(O)cc1)C(=O)N[C@@H](CO)C(N)=O)[C@@H](C)CC [compound 23] | 0.22 |  |  |  |  | 
CC[C@H](C)[C@H](NC(=O)[C@H](CC(C)C)NC(=O)[C@H](Cc1c[nH]c2ccccc12)NC(=O)[C@H](CCC(=O)O)NC(=O)[C@@H](NC(=O)[C@H](Cc1ccccc1)NC(=O)[C@H](CCC(=O)O)NC(=O)[C@H](CCCCN)NC(=O)[C@H](C)NC(=O)[C@H](C)NC(=O)[C@H](CCCCN)NC(=O)[C@H](CCC(=O)O)NC(=O)[C@H](CCC(=O)O)NC(=O)[C@H](CC(C)C)NC(=O)[C@H](Cc1ccc(O)cc1)NC(=O)[C@H](CCC(=O)O)NC(=O)[C@@H](NC(=O)[C@@H](NC(=O)[C@H](CC(=O)O)NC(=O)[C@H](CC(N)=O)NC(=O)[C@@H](NC(=O)[C@H](Cc1ccc(O)cc1)NC(=O)[C@@H](NC(=O)CNC(=O)[C@H](CCC(=O)O)NC(=O)[C@@H](C)NC(=O)[C@@H](N)Cc1c[nH]cn1)[C@@H](C)O)[C@@H](C)O)C(C)C)[C@@H](C)O)[C@@H](C)CC)C(N)=O [compound 43] |  | 0.14 |  |  |  | 
CC[C@H](C)[C@H](NC(=O)[C@H](Cc1ccccc1)NC(=O)[C@H](CCC(=O)O)NC(=O)[C@H](CCCCN)NC(=O)[C@H](C)NC(=O)[C@H](C)NC(=O)[C@H](CCCCN)NC(=O)[C@H](CCC(=O)O)NC(=O)[C@H](CCC(=O)O)NC(=O)[C@H](CC(C)C)NC(=O)[C@H](Cc1ccc(O)cc1)NC(=O)[C@H](CCC(=O)O)NC(=O)[C@@H](NC(=O)[C@@H](NC(=O)[C@H](CC(=O)O)NC(=O)[C@H](CC(N)=O)NC(=O)[C@@H](NC(=O)[C@H](Cc1ccc(O)cc1)NC(=O)[C@@H](NC(=O)CNC(=O)[C@H](CCC(=O)O)NC(=O)[C@@H](C)NC(=O)[C@@H](N)Cc1c[nH]cn1)[C@@H](C)O)[C@@H](C)O)C(C)C)[C@@H](C)O)C(=O)N[C@@H](CCC(=O)O)C(=O)N[C@@H](Cc1c[nH]c2ccccc12)C(=O)N[C@@H](CC(C)C)C(N)=O [compound 45] |  | 34 |  |  |  | 
CC[C@H](NC(=O)[C@@H](N)Cc1c[nH]cn1)C(=O)N[C@@H](CCC(=O)O)C(=O)NCC(=O)N[C@H](C(=O)N[C@@H](Cc1ccc(O)cc1)C(=O)N[C@H](C(=O)N[C@@H](CC(N)=O)C(=O)N[C@@H](CC(=O)O)C(=O)N[C@H](C(=O)N[C@H](C(=O)N[C@@H](CCC(N)=O)C(=O)N[C@@H](Cc1ccccc1)C(=O)N[C@@H](CC(C)C)C(=O)N[C@@H](CCC(=O)O)C(=O)N[C@@H](CCC(=O)O)C(=O)N[C@@H](CCCCN)C(=O)N[C@@H](C)C(=O)N[C@@H](C)C(=O)N[C@@H](CCCCN)C(=O)N[C@@H](CCC(=O)O)C(=O)N[C@@H](Cc1ccccc1)C(=O)N[C@H](C(=O)N[C@@H](CC(=O)O)C(=O)N[C@@H](Cc1c[nH]c2ccccc12)C(=O)N[C@@H](CC(C)C)C(=O)N[C@H](C(=O)N[C@@H](CCCCN)C(=O)NCC(=O)N[C@@H](CCCCN)C(=O)N1CCC[C@H]1C(=O)N[C@@H](CCCCN)C(=O)N[C@@H](CCCCN)C(=O)N[C@@H](CCC(N)=O)C(=O)N[C@@H](CCCNC(=N)N)C(=O)N[C@@H](CC(C)C)C(=O)N[C@@H](CO)C(N)=O)[C@@H](C)CC)[C@@H](C)CC)[C@@H](C)O)C(C)C)[C@@H](C)O)[C@@H](C)O [compound 53] | 0.146 | 0.12 | 40 | 44 | 50 | 34
